In paper PMC12655037, “Mitochondrial-Targeted Triphenylphosphonium-Conjugated Ionophores with Enhanced Cytotoxicity in Cancer Cells” (Molecules, 2025):

Legend:
[1] = test system: SW480 human primary colon cancer cells; experiment: MTT assay, SW480 cells; type: cell-based; details: for Selectivity index (SI) V79 / SW480: SI = IC50 V79/IC50 SW480; for Selectivity index (SI) HaCaT / SW480: SI = IC50 for normal cell line (HaCaT)/IC50 for cancer cell line (SW480)
[2] = test system: SW620 human metastatic colon cancer cells; experiment: MTT assay, SW620 cells; type: cell-based; details: for Selectivity index (SI) HaCaT / SW620: SI = IC50 HaCaT/IC50 SW620; for Selectivity index (SI) V79 / SW620: SI = IC50 V79/IC50 SW620
[3] = test system: PC3 human metastatic prostate cancer cells; experiment: MTT assay, PC3 cells; type: cell-based; details: for Selectivity index (SI) HaCaT / PC3: SI = IC50 HaCaT/IC50 PC3; for Selectivity index (SI) V79 / PC3: SI = IC50 V79/IC50 PC3
[4] = test system: MDA-MB-231 human breast cancer cells; experiment: MTT assay, MDA-MB-231 cells; type: cell-based; details: for Selectivity index (SI) HaCaT / MDA-MB-231: SI = IC50 HaCaT/IC50 MDA-MB-231; for Selectivity index (SI) V79 / MDA-MB-231: SI = IC50 V79/IC50 MDA-MB-231
[5] = test system: A549 human lung cancer cells; experiment: MTT assay, A549 cells; type: cell-based; details: for Selectivity index (SI) HaCaT / A549: SI = IC50 HaCaT/IC50 A549; for Selectivity index (SI) V79 / A549: SI = IC50 V79/IC50 A549
[6] = test system: MiaPaCa human pancreas cancer cells; experiment: MTT assay, MiaPaCa cells; type: cell-based; details: for Selectivity index (SI) HaCaT / MiaPaCa: SI = IC50 HaCaT/IC50 MiaPaCa; for Selectivity index (SI) V79 / MiaPaCa: SI = IC50 V79/IC50 MiaPaCa
A549 cells = experiment: Mitochondrial ROS generation (MitoROS 580), A549; details: A549, 6 h and 12 h at IC50 concentration
MDA-MB-231 cells = experiment: Mitochondrial ROS generation (MitoROS 580), MDA-MB-231; details: MDA-MB-231, 6 h and 12 h at IC50 concentration
breast cancer stem cells = details: greater selectivity than paclitaxel; cited from earlier work

CCC1(C2OC(C3OC(O)(Cn4cc(C[P+](c5ccccc5)(c5ccccc5)c5ccccc5)nn4)C(C)CC3C)CC2C)CCC(C2(C)CCC3(CC(O)C(C)C(C(C)C(OC)C(C)C(=O)O)O3)O2)O1 (centres unmarked) [2a]
Selectivity index (SI) V79 / SW480 [1]: 10
Selectivity index (SI) HaCaT / SW480 [1]: 1.2
Selectivity index (SI) HaCaT / SW620 [2]: 0.9
Selectivity index (SI) V79 / SW620 [2]: 7.1
Selectivity index (SI) HaCaT / PC3 [3]: 1.5
Selectivity index (SI) V79 / PC3 [3]: 12.5
Selectivity index (SI) HaCaT / MDA-MB-231 [4]: 0.9
Selectivity index (SI) V79 / MDA-MB-231 [4]: 7.1
Selectivity index (SI) HaCaT / A549 [5]: 2
Selectivity index (SI) V79 / A549 [5]: 16.7
Selectivity index (SI) HaCaT / MiaPaCa [6]: 2
Selectivity index (SI) V79 / MiaPaCa [6]: 16.7
mitochondrial ROS (mtROS) production (A549 cells): lack of electron transport chain ROS generation
mitochondrial ROS (mtROS) production (MDA-MB-231 cells): induced mtROS production

CC[C@@H](C(=O)[C@@H](C)[C@@H](O)[C@H](C)[C@@H]1O[C@@H]([C@@H](CC)C(=O)O)CC[C@@H]1C)[C@H]1O[C@]2(C=C[C@@H](O)[C@]3(CC[C@@](C)([C@H]4CC[C@](O)(CC)[C@H](C)O4)O3)O2)[C@H](C)C[C@@H]1C [SAL, Salinomycin, reference compound]
Selectivity index (SI) V79 / SW480 [1]: 1.1
Selectivity index (SI) HaCaT / SW480 [1]: 0.5
Selectivity index (SI) HaCaT / SW620 [2]: 0.4
Selectivity index (SI) V79 / SW620 [2]: 0.8
Selectivity index (SI) HaCaT / PC3 [3]: 0.2
Selectivity index (SI) V79 / PC3 [3]: 0.4
Selectivity index (SI) HaCaT / MDA-MB-231 [4]: 0.6
Selectivity index (SI) V79 / MDA-MB-231 [4]: 1.2
Selectivity index (SI) HaCaT / A549 [5]: 0.4
Selectivity index (SI) V79 / A549 [5]: 0.8
Selectivity index (SI) HaCaT / MiaPaCa [6]: 0.2
Selectivity index (SI) V79 / MiaPaCa [6]: 0.5
selectivity of tumor growth inhibition in vivo relative to paclitaxel (breast cancer stem cells): approximately 100 fold
mitochondrial ROS (mtROS) production (A549 cells): induced mtROS production
mitochondrial ROS (mtROS) production (MDA-MB-231 cells): induced mtROS production
